Among the data in PubChem BioAssay AID720704 (The Scripps Research Institute Molecular Screening Center, 2013) are inhibition values, retold here.

Sequences of proteins named here, by UniProt entry; tags and fusion partners are left off.
UniProt Q01970, whole entry: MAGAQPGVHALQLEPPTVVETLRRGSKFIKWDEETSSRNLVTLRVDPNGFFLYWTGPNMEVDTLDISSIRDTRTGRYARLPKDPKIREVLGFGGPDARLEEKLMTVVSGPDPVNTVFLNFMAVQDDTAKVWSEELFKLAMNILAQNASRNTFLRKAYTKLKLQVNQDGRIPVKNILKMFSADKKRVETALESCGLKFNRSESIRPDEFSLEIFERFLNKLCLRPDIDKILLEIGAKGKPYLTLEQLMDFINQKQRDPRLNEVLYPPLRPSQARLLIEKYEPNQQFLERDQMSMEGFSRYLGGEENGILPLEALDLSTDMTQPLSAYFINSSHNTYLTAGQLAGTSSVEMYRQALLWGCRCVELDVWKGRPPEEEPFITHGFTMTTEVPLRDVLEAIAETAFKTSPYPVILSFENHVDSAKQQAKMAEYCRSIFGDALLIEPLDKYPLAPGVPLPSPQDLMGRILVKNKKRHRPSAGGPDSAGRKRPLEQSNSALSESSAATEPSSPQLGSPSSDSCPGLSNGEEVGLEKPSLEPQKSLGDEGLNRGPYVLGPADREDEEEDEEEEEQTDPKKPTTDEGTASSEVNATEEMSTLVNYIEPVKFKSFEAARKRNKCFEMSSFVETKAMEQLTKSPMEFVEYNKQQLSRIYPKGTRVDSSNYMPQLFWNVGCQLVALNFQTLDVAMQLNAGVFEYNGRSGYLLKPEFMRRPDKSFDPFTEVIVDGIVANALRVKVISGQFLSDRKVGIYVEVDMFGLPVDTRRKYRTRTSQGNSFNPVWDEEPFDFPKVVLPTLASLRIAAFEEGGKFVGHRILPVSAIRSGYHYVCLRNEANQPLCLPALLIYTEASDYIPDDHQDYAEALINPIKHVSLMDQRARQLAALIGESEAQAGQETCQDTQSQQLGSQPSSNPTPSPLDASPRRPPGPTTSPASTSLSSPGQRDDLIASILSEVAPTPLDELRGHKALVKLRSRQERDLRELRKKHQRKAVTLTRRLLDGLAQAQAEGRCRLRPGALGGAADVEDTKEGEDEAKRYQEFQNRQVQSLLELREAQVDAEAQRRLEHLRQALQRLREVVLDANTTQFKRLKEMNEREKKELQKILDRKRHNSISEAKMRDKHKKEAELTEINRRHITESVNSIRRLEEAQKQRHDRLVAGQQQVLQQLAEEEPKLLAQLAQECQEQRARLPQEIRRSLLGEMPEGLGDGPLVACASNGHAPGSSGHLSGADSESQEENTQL

The entries are a selection whose mix differs from that of the whole data set. Some salts or complexes appear as unconnected parts, following the source record. Activity calls are given as the source filed them. Cut-off read from the data, not from the text of the source: active = inhibition above about 11%; inactive = the rest.

In the test the target is 1-phosphatidylinositol 4,5-bisphosphate phosphodiesterase beta-3 (Homo sapiens) (UniProt Q01970). The test can be described thus: phospholipase C beta3 enzyme inhibition – biochemical, fluorescence, primary screen (AID 720704).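 Note: 0% = median of compound wells on plate and 100% = full blocker control.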 To be noted: Purified PLC-beta3, fluorogenic substrate, at 12.2 µM, stronger effect = higher value.
Consider `O=C(O)c1cccc(Nc2c([N+](=O)[O-])cc([N+](=O)[O-])cc2[N+](=O)[O-])c1`, for which the inhibition was inactive: 7.19%.
As to `CC1=NCCc2c1[nH]c1ccccc21.O=[N+]([O-])c1cc([N+](=O)[O-])c(O)c([N+](=O)[O-])c1`, the inhibition was inactive: -173%.
Take `Cc1cc(C)cc(OP(C)(=O)Nc2ccc(C)cc2C)c1` (centres undefined): the inhibition was inactive: 3.47%.
In the case of `CCOC(=O)c1ccc(NP(C)(=O)Oc2cc(C)cc(C)c2)cc1` (centres undefined), the inhibition was inactive: 3.6%.
Regarding `COc1ccccc1OP(C)(=O)Nc1cccc(Br)c1` (centres undefined), the inhibition is inactive: 4.46%.
As to `Cc1cc(C)cc(OP(C)(=O)Nc2ccccn2)c1` (centres undefined), the inhibition was inactive: 1.11%.
In the case of `CP(=O)(Nc1cccc(Br)c1)Oc1ccccc1` (centres undefined), the inhibition is inactive: -1.2%.
To `Cc1ccc(C)c(NP(C)(=O)Oc2ccccc2)c1` (centres undefined) belongs inactive: 1.64%.
Consider `CN(Cc1cccnc1)C(=O)COc1ccc(Cl)c(Cl)c1.O=[N+]([O-])c1cc([N+](=O)[O-])c(O)c([N+](=O)[O-])c1`, for which the inhibition was inactive: -0.3%.
For `O=[N+]([O-])c1cc([N+](=O)[O-])c(-n2nnc3ccccc32)c([N+](=O)[O-])c1`, the inhibition is inactive: 3.8%.
For the molecule `Cc1nc2ccc3ccccc3c2s1.O=[N+]([O-])c1cc([N+](=O)[O-])c(O)c([N+](=O)[O-])c1`, the inhibition was active: 12.2%.
`O=[N+]([O-])c1cc([N+](=O)[O-])c(-c2cnn(-c3ccccc3)c2)c([N+](=O)[O-])c1`: the inhibition is inactive: -5.38%.
To `CCOC(=O)C(CC)C1=NC(C)(C)Cc2ccccc21.O=[N+]([O-])c1cc([N+](=O)[O-])c(O)c([N+](=O)[O-])c1` (centres undefined) belongs inactive: -5.56%; to `O=[N+]([O-])c1cc([N+](=O)[O-])c(Nc2nnnn2CCO)c([N+](=O)[O-])c1`, inactive: 1.56%.
Regarding `CCCOc1ccc(NP(C)(=O)Oc2ccc(Cl)cc2)cc1` (centres undefined), the inhibition is inactive: -0.41%.
On to `CP(=O)(Nc1ccc(SC(F)(F)F)cc1)Oc1ccccc1` (centres undefined), for which the inhibition is inactive: 2.35%.
Regarding `COc1ccc(-c2ccccn2)cc1.O=[N+]([O-])c1cc([N+](=O)[O-])c(O)c([N+](=O)[O-])c1`, the inhibition is inactive: 1.21%.
`COc1ccccc1OP(C)(=O)Nc1c(C)cccc1C` (centres undefined): the inhibition is inactive: 2.6%.
With `CN1CCCCC1COC(=O)C1(O)c2ccccc2CCc2ccccc21` (centres undefined), the inhibition is inactive: 2.21%.
`COc1ccccc1OP(C)(=O)Nc1ccccc1` (centres undefined): the inhibition is inactive: -4.91%.
Turning to `CP(=O)(Nc1ccccc1Br)Oc1ccccc1` (centres undefined), the inhibition is inactive: -1.87%.
With `CP(=S)(Nn1cnnc1)Oc1ccccc1` (centres undefined) the figure was inactive: -3.3%; with `Cc1cc(C)cc(OP(C)(=O)Nc2ccc(SC(F)(F)F)cc2)c1` (centres undefined), inactive: 4.52%.
As for `CP(=O)(NC(=O)Nc1ccccc1)Oc1ccccc1` (centres undefined), the inhibition was inactive: 3.26%.
For `CCc1ccc(OP(C)(=O)N2CCN(c3ccc([N+](=O)[O-])cc3)CC2)cc1` (centres undefined), the inhibition was inactive: -6.25%.
For `CP(=O)(Oc1ccccc1)OC(c1ccccc1)C(F)(F)F` (centres undefined), the inhibition is inactive: -5.39%.
On to `Cc1cccc(C)c1OP(C)(=O)Nc1ccc(SC(F)(F)F)cc1` (centres undefined), for which the inhibition is inactive: -15.2%.
With `CP(=O)(Nc1ccc(SC(F)(F)F)cc1)Oc1ccc(Cl)cc1` (centres undefined) the figure was inactive: 1.12%; with `CP(=O)(Nc1ccccn1)Oc1ccc(Cl)cc1` (centres undefined), inactive: -0.88%; with `CCOP(C)(=S)SCC(=O)NC(C)C(=O)O` (centres undefined), inactive: 3.73%.
With `CCOC(=O)c1ccc(NP(C)(=O)Oc2ccc(OC)cc2)cc1` (centres undefined), the inhibition was inactive: 1.82%.
With `O=[N+]([O-])c1cc([N+](=O)[O-])c(O)c([N+](=O)[O-])c1.c1ccc(Oc2ccncc2)cc1` the figure was inactive: -2.05%; with `CCN(CC)CCCOC(=O)C(O)(c1ccccc1)c1ccccc1`, inactive: -9.03%.
To `COc1ccccc1-c1ccccn1.O=[N+]([O-])c1cc([N+](=O)[O-])c(O)c([N+](=O)[O-])c1` belongs inactive: 1.9%; to `Cc1cccc(C)c1OP(C)(N)=O` (centres undefined), inactive: -2.51%.
As to `CC(C)(C)c1ccc(OP(C)(=O)Nc2ccc(SC(F)(F)F)cc2)cc1` (centres undefined), the inhibition is inactive: 1.94%.
With `O=[N+]([O-])c1ccc2c(c1)C=Nc1ccccc1O2`, the inhibition is inactive: 4.82%.
With `O=[N+]([O-])c1cc([N+](=O)[O-])c(Nc2cccnc2)c([N+](=O)[O-])c1` the figure was inactive: 5.38%.
Turning to `COc1ccc(OP(C)(=O)Nc2cccc(F)c2)cc1` (centres undefined), the inhibition was inactive: 1.28%.
As to `COc1ccccc1OP(C)(=O)Nc1cc(Cl)ccc1C` (centres undefined), the inhibition is inactive: 3.16%.
For `Cc1cc(C)cc(OP(C)(N)=O)c1` (centres undefined), the inhibition was inactive: -1.27%.
Take `CCOC(=O)c1ccc(NP(C)(=O)Oc2ccccc2)cc1` (centres undefined): the inhibition was inactive: -1.62%.
`Cc1ccc(NP(C)(=O)Oc2ccccc2)c(C)c1` (centres undefined): the inhibition was inactive: 0.48%.
Take `COc1ccccc1OP(C)(=O)Nc1ccc(C)cc1` (centres undefined): the inhibition was inactive: 6.09%.
Turning to `COc1ccc(OP(C)(=O)Nc2ccccc2Br)cc1` (centres undefined), the inhibition is inactive: 1.79%.
With `COc1ccccc1OP(C)(=O)Nc1ccc(C)c(C)c1` (centres undefined), the inhibition was inactive: 1.14%.
In the case of `Cc1cc(C)cc(OP(C)(=O)Nc2cccc(C(F)(F)F)c2)c1` (centres undefined), the inhibition was inactive: 2.9%.
As for `O=C1C(O)=C([N+](=O)[O-])C(=O)C(O)=C1[N+](=O)[O-]`, the inhibition was inactive: 0.99%.
`CCCCCCCCCCCCCCCC1C[N+](C)(C)CCOP(C)(=O)O1` (centres undefined): the inhibition was inactive: 4.11%.
To `CP(=O)(Nc1ccc(Cl)cc1Cl)Oc1ccccc1` (centres undefined) belongs inactive: -8.82%; to `CP(=O)(OCCOc1ccccc1)OCCOc1ccccc1`, inactive: 3.1%; to `CN(C)CCOC(=O)C(O)(c1ccccc1)C1CCCC1` (centres undefined), inactive: 2.31%.
With `COc1ccc(OP(C)(=O)Nc2ccccn2)cc1` (centres undefined), the inhibition was inactive: 2.31%.
On to `COc1ccccc1OP(C)(=O)Nc1ccc(Br)cc1` (centres undefined), for which the inhibition was inactive: -2.87%.
For `CCc1ccc(OP(C)(=O)O)cc1`, the inhibition is inactive: 2.33%.
As to `COc1ccccc1OP(C)(=O)Nc1ccc(C)cc1C` (centres undefined), the inhibition is inactive: 2.08%.
Regarding `CP(=O)(Nc1ccccn1)Oc1ccccc1` (centres undefined), the inhibition is inactive: -1.91%.
With `Cc1c(NP(C)(=O)Oc2ccc(C(C)C)cc2)c(=O)n(-c2ccccc2)n1C` (centres undefined) the figure was inactive: -2.42%; with `O=[N+]([O-])c1cc([N+](=O)[O-])c(Nc2ccccn2)c([N+](=O)[O-])c1`, inactive: 5.11%; with `CCc1ccc(OP(C)(=O)Nc2cccnc2)cc1` (centres undefined), inactive: -3.87%.
As to `CP(=O)(Oc1ccccc1)N1CCOC1=O` (centres undefined), the inhibition is inactive: 2.8%.
To `O=C(OCCCN1CCCC1)C(O)(c1ccccc1)C1CCCCC1` (centres undefined) belongs inactive: -7.51%; to `COc1ccccc1OP(C)(=O)Nc1c(C)n(C)n(-c2ccccc2)c1=O` (centres undefined), inactive: -4.07%; to `COc1ccc(OP(C)(=O)Nc2ccc(Br)cc2)cc1` (centres undefined), inactive: 4.18%.
Consider `CCN(CC)CC(O)COC(=O)C(O)(c1ccccc1)C1CCCCC1` (centres undefined), for which the inhibition is inactive: -0.29%.
For the molecule `CN(C)C(=O)c1c([N+](=O)[O-])cc([N+](=O)[O-])cc1[N+](=O)[O-]`, the inhibition was inactive: -4.28%.
As for `CP(=O)(Nc1ccc(Cl)cc1)Oc1ccc(F)cc1` (centres undefined), the inhibition was inactive: 1.65%.
Regarding `COc1ccccc1OP(C)(=O)Nc1ccccc1Br` (centres undefined), the inhibition is inactive: -2.02%.
For `CC(C)(C)c1ccc(OP(C)(=O)O)cc1`, the inhibition is inactive: 3.63%.
To `CP(=O)(OC12CC3CC(CC(C3)C1)C2)OC12CC3CC(CC(C3)C1)C2` belongs inactive: -1.07%; to `CCOC(=O)c1ccc(NP(C)(=O)Oc2ccc(Cl)cc2)cc1` (centres undefined), inactive: 3.91%.
On to `Nc1ccc2c(ccc3cccnc32)n1.O=[N+]([O-])c1cc([N+](=O)[O-])c(O)c([N+](=O)[O-])c1`, for which the inhibition is inactive: -267%.
Consider `COc1ccc(NP(C)(=O)Oc2ccccc2OC)cc1` (centres undefined), for which the inhibition was inactive: 2.63%.
With `CN(C)CCOC(=O)C(O)(c1ccccc1)C1CCCCC1` (centres undefined) the figure was inactive: 6.47%; with `COc1ccc(OP(C)(=O)Nc2cccc(Br)c2)cc1` (centres undefined), inactive: 1.41%; with `Cc1c(C(c2ccc3c(c2)OCO3)c2c(C)n(C)n(-c3ccccc3)c2=O)c(=O)n(-c2ccccc2)n1C.O=[N+]([O-])c1cc([N+](=O)[O-])c(O)c([N+](=O)[O-])c1`, inactive: -5.69%.
With `O=[N+]([O-])c1cc([N+](=O)[O-])c(NCC2CCS(=O)(=O)C2)c([N+](=O)[O-])c1` (centres undefined), the inhibition is inactive: 1.64%.
For `Cc1cc(-c2cccc3ccccc23)c(C)cn1.O=[N+]([O-])c1cc([N+](=O)[O-])c(O)c([N+](=O)[O-])c1`, the inhibition is inactive: -3.38%.
With `O=[N+]([O-])c1ccc(OP2(=O)COCCO2)cc1` (centres undefined) the figure was inactive: 0.76%.
With `CCOP(=O)(CC)OCC` the figure was inactive: -4.26%; with `CCOP(C)(=S)SCC(=O)NC(C)(CC)C(=O)O` (centres undefined), inactive: 3.94%; with `CP(=O)(Nc1ccc(SC(F)(F)F)cc1)Oc1ccc(F)cc1` (centres undefined), inactive: -1.12%.
`O=[N+]([O-])c1cc([N+](=O)[O-])c(C(F)(F)F)c([N+](=O)[O-])c1O`: the inhibition is inactive: 3.93%.
As to `Cc1ccccc1NP(C)(=O)Nc1ccccc1C`, the inhibition was inactive: 1.01%.
Take `CP(=O)(Nc1ccc2c(c1)OCCO2)Oc1ccccc1` (centres undefined): the inhibition was inactive: 1.96%.
For `CC(C)c1ccc(OP(C)(=O)Nc2ccc(SC(F)(F)F)cc2)cc1` (centres undefined), the inhibition was inactive: 3.13%.
In the case of `CP(=O)(Nc1ccccc1F)Oc1ccccc1` (centres undefined), the inhibition is inactive: 1.12%.
Turning to `O=[N+]([O-])c1cc([N+](=O)[O-])c(Nc2ccc(Cl)cc2)c([N+](=O)[O-])c1`, the inhibition is inactive: 1%.
In the case of `COc1ccc2c(c1O)-c1c(O)c(OC)cc3c1[C@H](C2)[N+](C)(C)CC3.O=[N+]([O-])c1cc([N+](=O)[O-])c([O-])c([N+](=O)[O-])c1[O-]`, the inhibition is inactive: -224%.
With `O=C(OCCN1CCN(CCOCc2ccccc2)CC1)C(O)(c1ccccc1)c1ccccc1` the figure was inactive: 2.04%.
On to `O=C(OC1CN2CCC1CC2)c1ccc([N+](=O)[O-])cc1` (centres undefined), for which the inhibition is inactive: 1.38%.
Take `COc1ccc(OP(C)(=O)Nc2ccc(SC(F)(F)F)cc2)cc1` (centres undefined): the inhibition was inactive: 3.44%.
For the molecule `CCOC(=O)c1ccc(NP(C)(=O)Oc2ccc(F)cc2)cc1` (centres undefined), the inhibition was inactive: -1.49%.
In the case of `CCN(CC)CCCNc1ccccc1[N+](=O)[O-].O=[N+]([O-])c1cc([N+](=O)[O-])c(O)c([N+](=O)[O-])c1`, the inhibition is inactive: 3.59%.
With `CCCCCOc1ccc(NP(C)(=O)Oc2ccc(Cl)cc2Cl)cc1` (centres undefined), the inhibition was inactive: -6.86%.
With `O=[N+]([O-])c1cc([N+](=O)[O-])c(OC2CCCCC2O)c([N+](=O)[O-])c1` (centres undefined) the figure was inactive: -1.87%.
With `CP(=O)(Nc1ccccc1)Oc1ccc(F)cc1` (centres undefined) the figure was inactive: 1.87%; with `CCN(CC)CCCOC(=O)C(O)(c1ccccc1)C1CCCCC1` (centres undefined), inactive: 2.37%.
As to `Cc1c([N+](=O)[O-])cc([N+](=O)[O-])c(Br)c1[N+](=O)[O-]`, the inhibition was inactive: 5.83%.
